Data reported in BindingDB's records for doi:10.1016/S0893-133X(02)00346-9 (Eli Lilly, 2002).

Sequences of proteins named here, by UniProt entry; tags and fusion partners are left off.
UniProt Q01959, whole entry: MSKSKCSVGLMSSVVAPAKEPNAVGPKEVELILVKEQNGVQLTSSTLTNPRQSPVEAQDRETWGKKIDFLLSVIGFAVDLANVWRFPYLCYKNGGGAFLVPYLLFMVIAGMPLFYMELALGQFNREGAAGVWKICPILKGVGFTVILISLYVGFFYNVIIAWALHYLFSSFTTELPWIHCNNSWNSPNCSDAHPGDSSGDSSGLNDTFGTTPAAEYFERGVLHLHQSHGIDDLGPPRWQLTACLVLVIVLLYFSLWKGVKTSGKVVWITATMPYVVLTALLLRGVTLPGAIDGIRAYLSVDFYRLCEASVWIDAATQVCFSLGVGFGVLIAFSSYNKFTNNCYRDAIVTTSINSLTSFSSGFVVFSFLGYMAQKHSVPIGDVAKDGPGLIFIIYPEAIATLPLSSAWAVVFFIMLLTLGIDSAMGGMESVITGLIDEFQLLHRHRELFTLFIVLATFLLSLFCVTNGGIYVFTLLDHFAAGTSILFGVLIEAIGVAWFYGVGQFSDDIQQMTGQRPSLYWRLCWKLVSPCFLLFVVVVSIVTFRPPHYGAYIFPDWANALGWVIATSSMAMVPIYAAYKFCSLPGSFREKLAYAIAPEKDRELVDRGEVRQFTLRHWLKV
UniProt P23975, whole entry: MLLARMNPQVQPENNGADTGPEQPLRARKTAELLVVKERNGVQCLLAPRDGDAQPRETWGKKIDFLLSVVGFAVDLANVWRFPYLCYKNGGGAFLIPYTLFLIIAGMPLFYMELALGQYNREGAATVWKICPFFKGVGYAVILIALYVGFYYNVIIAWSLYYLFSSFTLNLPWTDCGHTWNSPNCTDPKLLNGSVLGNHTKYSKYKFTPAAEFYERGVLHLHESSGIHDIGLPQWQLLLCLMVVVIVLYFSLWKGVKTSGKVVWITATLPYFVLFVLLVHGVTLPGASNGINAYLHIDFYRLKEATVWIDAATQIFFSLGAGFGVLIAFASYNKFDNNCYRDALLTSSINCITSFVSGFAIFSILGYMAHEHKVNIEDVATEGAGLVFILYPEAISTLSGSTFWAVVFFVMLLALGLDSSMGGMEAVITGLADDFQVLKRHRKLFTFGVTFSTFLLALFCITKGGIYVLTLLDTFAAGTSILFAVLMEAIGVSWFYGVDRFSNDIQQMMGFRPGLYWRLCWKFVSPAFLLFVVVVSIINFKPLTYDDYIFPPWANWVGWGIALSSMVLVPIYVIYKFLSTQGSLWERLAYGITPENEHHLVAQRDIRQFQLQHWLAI

Assays:
[1] = target: Sodium-dependent dopamine transporter (Homo sapiens, UniProt Q01959)
[2] = target: Sodium-dependent noradrenaline transporter (Homo sapiens, UniProt P23975)

Ki [1]: > 10000 nM
Ki [2]: 98 nM
Structure (SMILES): CN(C)CCCN1c2ccccc2CCc2ccccc21
